Values quoted from earlier work in article PMC7078148.

Sequences of proteins named here, by UniProt entry; tags and fusion partners are left off. Residues count along the entry.
UniProt Q99714, 2-261: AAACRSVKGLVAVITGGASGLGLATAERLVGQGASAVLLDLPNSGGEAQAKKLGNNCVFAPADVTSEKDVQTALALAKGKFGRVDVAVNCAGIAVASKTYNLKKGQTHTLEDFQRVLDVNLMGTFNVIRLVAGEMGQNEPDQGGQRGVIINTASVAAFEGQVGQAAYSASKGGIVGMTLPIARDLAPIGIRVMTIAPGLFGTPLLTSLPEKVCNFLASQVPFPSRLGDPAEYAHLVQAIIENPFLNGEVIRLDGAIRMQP

Target: amyloid beta (Homo sapiens) (UniProt P05067)

Substance: 17β-HSD10 (from UniProt Q99714)
- Kd: 60 nM
